Assay results: EP1845096A1, “12-Aza-epothilones, process for their preparation and their use as antiproliferative agents” (ETH Zürich, priority 2006, dated 2007)

Tested on: KB-8511
Experiment: Human cancer cell growth inhibition, methylene blue staining, KB-8511 (multidrug-resistant)
Settings: read-out: IC50 KB-8511; KB-8511: P-gp170 overexpressing multidrug-resistant subline of KB-31; cells exposed for 72 h

C/C(=C\c1csc(C)n1)[C@@H]1CCN(C(=O)OC(C)(C)C)CCC[C@H](C)[C@H](O)[C@@H](C)C(=O)C(C)(C)[C@@H](O)CC(=O)O1 [B, reference compound]
IC50: 105 nM
